Chains of the proteins cited; added tags and fusions are not shown.
UniProt P14324, whole entry: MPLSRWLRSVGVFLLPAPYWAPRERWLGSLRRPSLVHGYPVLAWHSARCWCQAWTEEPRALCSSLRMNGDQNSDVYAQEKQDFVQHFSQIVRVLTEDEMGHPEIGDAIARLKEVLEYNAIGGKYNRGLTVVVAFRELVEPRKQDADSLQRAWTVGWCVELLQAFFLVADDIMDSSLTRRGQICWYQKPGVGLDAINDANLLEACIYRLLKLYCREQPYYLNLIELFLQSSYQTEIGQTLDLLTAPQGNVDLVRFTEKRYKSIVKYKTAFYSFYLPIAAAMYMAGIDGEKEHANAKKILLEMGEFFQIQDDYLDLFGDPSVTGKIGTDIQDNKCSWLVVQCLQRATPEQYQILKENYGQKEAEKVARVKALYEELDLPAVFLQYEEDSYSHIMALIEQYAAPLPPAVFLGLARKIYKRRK

According to patent US20250367283A1, “MEVALONATE PATHWAY INHIBITOR AS HIGHLY-EFFICIENT VACCINE ADJUVANT” (Tsinghua University, priority 2015, published 2025):

The compounds below were run against humanized farnesyl pyrophosphate synthase (HsFPPS) (Homo sapiens (Human), UniProt P14324) (assay: In vitro HsFPPS enzyme activity assay). Conditions: read-out: IC50 for inhibition of FPPS; TH-Z97 series.

CCCCCCCOc1ccn2c(CC(O)(P(=O)(O)O)P(=O)(O)O)cnc2c1 and CCCCCCCCOc1ccn2c(CC(O)(P(=O)(O)O)P(=O)(O)O)cnc2c1 are within 1.5-fold of each other in IC50: 170 nM for the first, 150 nM for the second.

First: COc1ccn2c(CC(O)(P(=O)(O)O)P(=O)(O)O)cnc2c1
Second: CCOc1ccn2c(CC(O)(P(=O)(O)O)P(=O)(O)O)cnc2c1
The IC50 of the first is 2-fold higher: 160 nM for the first, 80 nM for the second.

CCCCCOc1ccn2c(CC(O)(P(=O)(O)O)P(=O)(O)O)cnc2c1 and CCCCOc1ccn2c(CC(O)(P(=O)(O)O)P(=O)(O)O)cnc2c1 are within 1.5-fold of each other in IC50: 70 nM for the first, 60 nM for the second.

Going from CCCCCCCCCOc1ccn2c(CC(O)(P(=O)(O)O)P(=O)(O)O)cnc2c1 to CCCCCCCCCCOc1ccn2c(CC(O)(P(=O)(O)O)P(=O)(O)O)cnc2c1, the IC50 rises from 5000 nM to > 5000 nM.

CCCCCCCCCCCOc1ccn2c(CC(O)(P(=O)(O)O)P(=O)(O)O)cnc2c1 and CCCCCCCCCCCCOc1ccn2c(CC(O)(P(=O)(O)O)P(=O)(O)O)cnc2c1 cannot be ordered by IC50: > 5000 nM for the first, > 5000 nM for the second.

Compound CCCOc1ccn2c(CC(O)(P(=O)(O)O)P(=O)(O)O)cnc2c1 has an IC50 of 130 nM.
